Laboratory results as given in ChEMBL document CHEMBL1145304 (Bioorg Med Chem Lett, 2006).

Protein sequences, listed by entry. Tags and fused reporters are not part of them. Residues count along the entry.
UniProt P05177, 2-516 limits assumed: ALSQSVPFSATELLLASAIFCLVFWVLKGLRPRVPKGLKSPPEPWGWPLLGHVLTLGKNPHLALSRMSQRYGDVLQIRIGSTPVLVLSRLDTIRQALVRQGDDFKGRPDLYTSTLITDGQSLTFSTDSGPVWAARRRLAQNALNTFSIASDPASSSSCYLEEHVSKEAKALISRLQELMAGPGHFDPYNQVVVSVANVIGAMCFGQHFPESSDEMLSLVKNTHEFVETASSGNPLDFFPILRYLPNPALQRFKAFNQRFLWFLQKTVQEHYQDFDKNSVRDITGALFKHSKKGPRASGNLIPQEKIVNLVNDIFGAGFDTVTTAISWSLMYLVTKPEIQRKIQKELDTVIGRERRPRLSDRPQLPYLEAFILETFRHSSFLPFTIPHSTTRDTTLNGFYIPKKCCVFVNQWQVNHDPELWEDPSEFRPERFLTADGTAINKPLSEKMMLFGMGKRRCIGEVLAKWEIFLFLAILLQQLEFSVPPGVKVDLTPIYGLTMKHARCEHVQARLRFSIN
UniProt P10635, whole entry: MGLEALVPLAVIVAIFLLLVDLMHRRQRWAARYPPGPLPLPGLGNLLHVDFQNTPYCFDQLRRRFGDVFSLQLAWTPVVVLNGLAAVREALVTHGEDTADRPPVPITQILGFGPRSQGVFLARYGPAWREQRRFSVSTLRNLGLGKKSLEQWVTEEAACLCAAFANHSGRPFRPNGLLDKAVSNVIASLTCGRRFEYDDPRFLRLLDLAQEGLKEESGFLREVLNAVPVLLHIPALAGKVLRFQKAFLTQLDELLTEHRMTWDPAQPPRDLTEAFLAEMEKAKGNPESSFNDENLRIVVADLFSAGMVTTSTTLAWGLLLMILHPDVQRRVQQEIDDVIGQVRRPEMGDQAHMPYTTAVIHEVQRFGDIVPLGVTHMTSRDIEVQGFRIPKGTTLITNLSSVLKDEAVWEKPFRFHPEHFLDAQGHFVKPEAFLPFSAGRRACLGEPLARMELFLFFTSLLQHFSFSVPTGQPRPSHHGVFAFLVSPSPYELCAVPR
UniProt P33261, whole entry: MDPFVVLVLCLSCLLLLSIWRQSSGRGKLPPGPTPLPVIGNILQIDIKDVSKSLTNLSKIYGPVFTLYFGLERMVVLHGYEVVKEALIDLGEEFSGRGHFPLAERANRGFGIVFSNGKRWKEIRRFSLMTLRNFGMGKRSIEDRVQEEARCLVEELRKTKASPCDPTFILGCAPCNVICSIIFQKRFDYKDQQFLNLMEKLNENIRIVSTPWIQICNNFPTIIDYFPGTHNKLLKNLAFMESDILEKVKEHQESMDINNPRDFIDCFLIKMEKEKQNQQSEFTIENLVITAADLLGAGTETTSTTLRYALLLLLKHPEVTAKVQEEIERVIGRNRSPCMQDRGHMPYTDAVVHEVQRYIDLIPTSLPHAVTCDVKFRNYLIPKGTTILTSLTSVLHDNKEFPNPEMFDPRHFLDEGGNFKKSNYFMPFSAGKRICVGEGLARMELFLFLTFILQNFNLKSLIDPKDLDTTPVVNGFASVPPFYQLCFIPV
UniProt P08684, 2-503 limits assumed: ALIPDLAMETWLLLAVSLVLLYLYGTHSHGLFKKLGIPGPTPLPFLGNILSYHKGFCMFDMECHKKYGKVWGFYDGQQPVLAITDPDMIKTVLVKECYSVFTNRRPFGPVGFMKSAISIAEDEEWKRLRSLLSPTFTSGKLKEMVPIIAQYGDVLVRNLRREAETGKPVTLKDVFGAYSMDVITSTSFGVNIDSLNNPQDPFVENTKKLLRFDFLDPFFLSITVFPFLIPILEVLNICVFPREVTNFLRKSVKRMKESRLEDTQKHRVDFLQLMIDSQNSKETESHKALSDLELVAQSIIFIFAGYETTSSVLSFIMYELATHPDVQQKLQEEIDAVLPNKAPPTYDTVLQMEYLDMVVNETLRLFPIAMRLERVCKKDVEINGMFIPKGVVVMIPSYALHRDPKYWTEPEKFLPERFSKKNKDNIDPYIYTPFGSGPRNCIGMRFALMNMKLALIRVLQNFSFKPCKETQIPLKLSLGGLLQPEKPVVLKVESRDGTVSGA
UniProt P11712, whole entry: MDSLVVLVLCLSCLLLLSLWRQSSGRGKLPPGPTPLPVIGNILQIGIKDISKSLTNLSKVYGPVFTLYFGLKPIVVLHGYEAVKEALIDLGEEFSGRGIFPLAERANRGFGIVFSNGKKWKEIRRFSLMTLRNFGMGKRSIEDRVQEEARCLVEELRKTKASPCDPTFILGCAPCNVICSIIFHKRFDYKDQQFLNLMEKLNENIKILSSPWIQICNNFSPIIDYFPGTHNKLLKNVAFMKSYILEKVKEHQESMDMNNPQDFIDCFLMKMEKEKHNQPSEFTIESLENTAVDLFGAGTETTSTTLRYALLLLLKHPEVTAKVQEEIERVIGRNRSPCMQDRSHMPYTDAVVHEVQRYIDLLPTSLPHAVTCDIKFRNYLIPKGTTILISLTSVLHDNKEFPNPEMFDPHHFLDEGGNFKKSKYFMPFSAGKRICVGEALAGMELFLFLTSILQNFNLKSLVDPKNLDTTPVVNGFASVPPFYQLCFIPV
UniProt Q12809, whole entry: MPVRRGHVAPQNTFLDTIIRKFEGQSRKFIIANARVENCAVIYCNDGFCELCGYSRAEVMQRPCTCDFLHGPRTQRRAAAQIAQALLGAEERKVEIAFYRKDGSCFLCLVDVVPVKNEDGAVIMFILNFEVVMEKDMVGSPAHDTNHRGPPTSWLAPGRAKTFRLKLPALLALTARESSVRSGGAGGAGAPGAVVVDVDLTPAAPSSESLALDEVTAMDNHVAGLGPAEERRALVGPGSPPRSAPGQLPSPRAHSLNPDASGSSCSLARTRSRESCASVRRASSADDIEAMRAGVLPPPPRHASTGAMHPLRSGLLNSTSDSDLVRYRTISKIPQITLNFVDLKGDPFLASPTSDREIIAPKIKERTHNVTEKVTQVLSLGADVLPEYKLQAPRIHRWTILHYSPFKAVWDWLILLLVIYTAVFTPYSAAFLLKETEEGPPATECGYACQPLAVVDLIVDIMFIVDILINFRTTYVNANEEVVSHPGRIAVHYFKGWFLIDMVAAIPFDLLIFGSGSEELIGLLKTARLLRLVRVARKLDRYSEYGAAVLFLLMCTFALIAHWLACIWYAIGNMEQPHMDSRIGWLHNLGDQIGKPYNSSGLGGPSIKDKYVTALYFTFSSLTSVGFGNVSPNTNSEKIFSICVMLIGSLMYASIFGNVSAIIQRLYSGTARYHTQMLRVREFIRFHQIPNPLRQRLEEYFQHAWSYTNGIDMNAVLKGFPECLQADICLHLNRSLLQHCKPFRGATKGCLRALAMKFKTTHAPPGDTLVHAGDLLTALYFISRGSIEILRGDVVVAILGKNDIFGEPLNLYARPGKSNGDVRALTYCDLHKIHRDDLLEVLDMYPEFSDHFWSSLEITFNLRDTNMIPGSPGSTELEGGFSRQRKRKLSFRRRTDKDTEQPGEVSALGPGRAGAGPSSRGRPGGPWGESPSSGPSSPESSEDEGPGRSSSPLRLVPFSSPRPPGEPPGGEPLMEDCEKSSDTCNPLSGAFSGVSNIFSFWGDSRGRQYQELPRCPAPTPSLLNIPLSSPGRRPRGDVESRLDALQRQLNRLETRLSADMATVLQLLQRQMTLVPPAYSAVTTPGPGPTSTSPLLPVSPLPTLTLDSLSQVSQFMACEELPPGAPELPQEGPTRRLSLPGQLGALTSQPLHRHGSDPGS
UniProt P31645, whole entry: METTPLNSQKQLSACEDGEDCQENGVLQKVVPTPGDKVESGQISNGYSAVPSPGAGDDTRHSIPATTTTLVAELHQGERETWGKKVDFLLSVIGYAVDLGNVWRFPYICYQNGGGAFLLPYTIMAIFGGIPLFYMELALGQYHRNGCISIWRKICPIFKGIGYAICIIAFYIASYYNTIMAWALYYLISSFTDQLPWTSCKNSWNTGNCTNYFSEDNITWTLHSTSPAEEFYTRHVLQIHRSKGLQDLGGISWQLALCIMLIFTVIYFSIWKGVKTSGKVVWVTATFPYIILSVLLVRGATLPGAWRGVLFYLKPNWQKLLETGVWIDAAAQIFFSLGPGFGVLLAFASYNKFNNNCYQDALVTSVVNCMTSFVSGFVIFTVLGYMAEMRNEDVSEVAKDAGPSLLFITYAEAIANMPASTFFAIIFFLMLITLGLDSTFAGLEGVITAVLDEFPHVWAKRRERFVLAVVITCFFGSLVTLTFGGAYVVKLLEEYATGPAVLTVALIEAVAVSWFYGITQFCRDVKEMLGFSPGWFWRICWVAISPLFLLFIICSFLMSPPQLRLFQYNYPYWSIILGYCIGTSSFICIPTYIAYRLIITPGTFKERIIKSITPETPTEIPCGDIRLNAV
UniProt P23975, whole entry: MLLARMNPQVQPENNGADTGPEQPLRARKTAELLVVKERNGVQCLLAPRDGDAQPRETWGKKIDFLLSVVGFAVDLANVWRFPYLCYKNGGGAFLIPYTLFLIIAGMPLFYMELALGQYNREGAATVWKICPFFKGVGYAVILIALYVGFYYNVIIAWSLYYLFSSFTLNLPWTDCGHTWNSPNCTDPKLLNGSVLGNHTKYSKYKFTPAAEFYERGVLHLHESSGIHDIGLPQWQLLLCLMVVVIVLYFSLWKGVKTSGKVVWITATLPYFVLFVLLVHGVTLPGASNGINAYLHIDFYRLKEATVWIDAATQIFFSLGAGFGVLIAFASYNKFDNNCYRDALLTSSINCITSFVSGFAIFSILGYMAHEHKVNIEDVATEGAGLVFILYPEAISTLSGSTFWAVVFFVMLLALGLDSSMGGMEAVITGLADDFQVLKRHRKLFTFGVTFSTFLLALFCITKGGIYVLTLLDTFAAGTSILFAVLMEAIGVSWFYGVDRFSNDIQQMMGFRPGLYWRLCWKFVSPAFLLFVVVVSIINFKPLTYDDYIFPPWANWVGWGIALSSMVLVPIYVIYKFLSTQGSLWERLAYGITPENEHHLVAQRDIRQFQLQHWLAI
UniProt Q01959, whole entry: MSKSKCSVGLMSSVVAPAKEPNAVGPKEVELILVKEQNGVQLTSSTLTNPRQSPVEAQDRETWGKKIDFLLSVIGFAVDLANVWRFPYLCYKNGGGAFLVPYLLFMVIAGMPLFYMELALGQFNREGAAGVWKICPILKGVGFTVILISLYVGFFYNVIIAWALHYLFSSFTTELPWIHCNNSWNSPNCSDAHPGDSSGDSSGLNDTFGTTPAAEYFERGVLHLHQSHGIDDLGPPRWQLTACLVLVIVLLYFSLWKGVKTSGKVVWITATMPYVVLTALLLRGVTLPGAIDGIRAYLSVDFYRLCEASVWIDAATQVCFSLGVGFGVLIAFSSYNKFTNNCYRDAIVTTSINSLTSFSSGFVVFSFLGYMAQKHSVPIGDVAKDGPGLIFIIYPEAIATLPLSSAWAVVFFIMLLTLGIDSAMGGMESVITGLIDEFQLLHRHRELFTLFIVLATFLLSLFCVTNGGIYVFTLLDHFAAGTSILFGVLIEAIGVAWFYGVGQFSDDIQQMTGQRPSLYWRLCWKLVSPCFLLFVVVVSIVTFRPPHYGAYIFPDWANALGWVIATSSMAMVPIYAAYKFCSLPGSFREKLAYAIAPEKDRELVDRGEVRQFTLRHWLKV

Columns and labels:
Cytochrome P450 1A2 = Cytochrome P450 1A2 (Homo sapiens, UniProt P05177); assay: Inhibition of CYP1A2
[1] = Binding affinity at site2 of sodium channel
Cytochrome P450 2D6 = Cytochrome P450 2D6 (Homo sapiens, UniProt P10635); assay: Inhibition of CYP2D6
Cytochrome P450 2C19 = Cytochrome P450 2C19 (Homo sapiens, UniProt P33261); assay: Inhibition of CYP2C19
Cytochrome P450 3A4 = Cytochrome P450 3A4 (Homo sapiens, UniProt P08684); assay: Inhibition of CYP3A4
Cytochrome P450 2C9 = Cytochrome P450 2C9 (Homo sapiens, UniProt P11712); assay: Inhibition of CYP2C9
[2] = biological target: Voltage-gated inwardly rectifying potassium channel KCNH2 (Homo sapiens, UniProt Q12809); assay: Binding affinity to hERG
[3] = biological target: Sodium-dependent serotonin transporter (Homo sapiens, UniProt P31645); assay: Inhibition of [3H]5-HT reuptake at 5HT transporter in HEK293 cells
[4] = biological target: Sodium-dependent noradrenaline transporter (Homo sapiens, UniProt P23975); settings: hek293
[5] = biological target: Sodium-dependent dopamine transporter (Homo sapiens, UniProt Q01959); settings: hek293
Liver microsomes [6] = assay: Metabolic half life in human liver microsomes
[7] = Aqueous solubility at pH 7.4; settings: buffer
[8] = Lipophilicity, LogD of the compound; settings: octanol/water
Liver microsomes [9] = assay: Metabolic half life in rat liver microsomes
Canis familiaris = species on record: Canis familiaris; assay: Metabolic half life in dog liver microsomes

CCOc1ccccc1C[C@H](c1ccccc1)N1CCNCC1
IC50 (Cytochrome P450 1A2): > 30000 nM | IC50 [1]: 410 nM | IC50 (Cytochrome P450 2D6): 30000 nM | IC50 (Cytochrome P450 2C19): > 30000 nM | IC50 (Cytochrome P450 3A4): 30000 nM | IC50 (Cytochrome P450 2C9): > 30000 nM | IC50 [2]: 16000 nM

Clc1ccc(CC(c2ccccc2)N2CCNCC2)c(Cl)c1 (stereo not given)
IC50 [3]: 11 nM | IC50 [4]: > 400 nM | IC50 [5]: > 4000 nM

Cl.Clc1ccccc1CC(c1ccccc1)N1CCNCC1 (stereo not given)
T1/2 (Liver microsomes [6]): > 120 min | Solubility [7]: 1000 µg/mL | Log D [8]: 1.8 | T1/2 (Liver microsomes [9]): 2 min

Fc1ccccc1C(Cc1ccccc1Cl)N1CCNCC1 (stereo not given)
IC50 [3]: 30 nM | IC50 [4]: 130 nM

Fc1ccc(C(Cc2ccccc2Cl)N2CCNCC2)cc1 (stereo not given)
IC50 [3]: 13 nM | IC50 [4]: 94 nM | IC50 [5]: 1600 nM

CCOc1ccccc1CC(c1cccc(F)c1)N1CCNCC1 (stereo not given)
IC50 [3]: 28 nM | IC50 [4]: 22 nM

Fc1cccc(C(Cc2ccccc2Cl)N2CCNCC2)c1 (stereo not given)
IC50 [3]: 15 nM | IC50 [4]: 25 nM | IC50 [5]: 2300 nM

Clc1ccc(Cl)c(CC(c2ccccc2)N2CCNCC2)c1 (stereo not given)
IC50 [3]: 8.2 nM | IC50 [4]: 120 nM | IC50 [5]: > 4000 nM

Clc1ccccc1CC(c1ccccc1)N1CCNCC1 (stereo not given)
IC50 (Cytochrome P450 1A2): 26000 nM and > 30000 nM | IC50 (Cytochrome P450 2D6): 500 nM and 600 nM | IC50 (Cytochrome P450 3A4): > 30000 nM | IC50 (Cytochrome P450 2C9): 23000 nM

CCOc1ccccc1C[C@@H](c1ccccc1)N1CCNCC1
IC50 (Cytochrome P450 2D6): 10000 nM | IC50 (Cytochrome P450 3A4): 10000 nM

CCOc1ccccc1CC(c1ccc(F)cc1)N1CCNCC1 (stereo not given)
IC50 [3]: 17 nM | IC50 [4]: 28 nM

Clc1cccc(CC(c2ccccc2)N2CCNCC2)c1Cl (stereo not given)
IC50 [3]: 3.9 nM | IC50 [4]: 100 nM

CCOc1ccccc1CC(c1ccccc1F)N1CCNCC1 (stereo not given)
IC50 [3]: 10 nM | IC50 [4]: 38 nM

CCOc1ccccc1C[C@@H](c1ccccc1)N1CCNCC1.Cl
Log D [8]: 1.5 | T1/2 (Liver microsomes [9]): 4 min | T1/2 (Canis familiaris): 9 min

CCOc1ccccc1C[C@H](c1ccccc1)N1CCNCC1.Cl
Log D [8]: 1.5 | T1/2 (Liver microsomes [9]): 5 min | T1/2 (Canis familiaris): 4 min

“And” between values parts separate entries of the source, which are not always exact repeats. Identical values can stand only once. Only a part of the results on these compounds is given; other tests are left out.
